From patent US20230218577A1, “USE OF HEAT SHOCK PROTEIN INHIBITORS FOR THE TREATMENT OF NEURODEVELOPMENTAL DISORDERS” (The Children's Medical Center Corporation, priority 2020, published 2023) come the findings set out here.

This experiment has as its system mTORC1 activity (pS6) in Tsc2-sh hippocampal neurons. Briefly: mTORC1 high-content screen (mTORC1^HCA) with the Biomol collection library.
Where [1] appears, read: Z-score of percent GFP+pS6+ neurons in compound-treated Tsc2-knockdown wells, DIV20, Biomol library screen, replica 1.
Setting [2] is: Z-score of percent GFP+pS6+ neurons in compound-treated Tsc2-knockdown wells, DIV20, Biomol library screen, replica 2.
Setting [3] is: Z-score of percent GFP+pS6+ neurons in compound-treated Tsc2-knockdown wells, DIV20, Biomol library, replica 1.
[4] abbreviates: Z-score of percent GFP+pS6+ neurons in compound-treated Tsc2-knockdown wells, DIV20, Biomol library, replica 2.

Where two headings read alike, the source gives them in different places. Peptide text beside a SMILES is read from it. * marks the point of attachment. Cbz = O=C(OCc1ccccc1)*; CH2F = FC*

With `CC(=O)OCOC(c1cc([N+](=O)[O-])ccc1Oc1ccc(Br)cc1)P(=O)(OCOC(C)=O)OCOC(C)=O` (centres unmarked) [RWJ-60475-(AM)3], the “T2 Zscore (Replica 1)” value is recorded as 0.1868 and the “T2 Zscore (Replica 2)” value was determined as 1.381.

For the compound `COc1ccc(C2CNC(=O)C2)cc1OC1CCCC1` (centres unmarked) [Rolipram], the “T2 Zscore (Replica 1)” value under setting [1] amounted to 0.2553. The “T2 Zscore (Replica 2)” value under setting [2] worked out at 0.02387.

`CC[C@H](CO)Nc1nc(NCc2ccccc2)c2ncn(C(C)C)c2n1` [Roscovitine]: the “T2 Zscore (Replica 1)” value was found to be 1.553 and the “T2 Zscore (Replica 2)” value was 1.224.

Consider `CC(=O)c1c(O)c(C)c(O)c(Cc2c(O)c3c(c(C(=O)/C=C/c4ccccc4)c2O)OC(C)(C)C=C3)c1O` [Rottierin], for which the “T2 Zscore (Replica 1)” value is reported as −0.3381 and the “T2 Zscore (Replica 2)” value was −0.8716.

Take `Oc1ccc(-c2nc(-c3ccc(F)cc3)c(-c3ccncc3)[nH]2)cc1` [SB 202190]: the “T2 Zscore (Replica 1)” value is on record as −0.01429 and the “T2 Zscore (Replica 2)” value is listed as 0.3809.

On to `C[S+]([O-])c1ccc(-c2nc(-c3ccc(F)cc3)c(-c3ccncc3)[nH]2)cc1` (centres unmarked) [SB 203580], for which the “T2 Zscore (Replica 1)” value came out at 0.2744 and the “T2 Zscore (Replica 2)” value worked out at 0.03102.

`O=C1NC(=O)C(c2ccccc2[N+](=O)[O-])=C1Nc1ccc(O)c(Cl)c1` [SB-415286]: the “T2 Zscore (Replica 1)” value is given as −0.3053 and the “T2 Zscore (Replica 2)” value was 0.3429.

With `NC(=O)c1ccc(-c2nc(-c3ccccn3)c(-c3ccc4c(c3)OCO4)[nH]2)cc1` [SB-431542], the “T2 Zscore (Replica 1)” value is recorded as 1.006 and the “T2 Zscore (Replica 2)” value is −0.8696.

Regarding `N#Cc1cc2c(OCC(O)CN3CCN(C(c4ccccc4)c4ccccc4)CC3)cccc2[nH]1` (centres unmarked) [SDZ-201106], the “T2 Zscore (Replica 1)” value was determined as 1.322 and the “T2 Zscore (Replica 2)” value is −0.7211.

As for `Oc1c2ccccc2c2c3c(cccc13)N=N2` [SP-600125], the “T2 Zscore (Replica 1)” value under setting [1] was 0.4069. Moreover, the “T2 Zscore (Replica 2)” value under setting [2] amounted to 0.05215.

As for `Nc1ncnc2c1ncn2C1CCCO1` (centres unmarked) [SQ22536], the “T2 Zscore (Replica 1)” value was −0.08797 and the “T2 Zscore (Replica 2)” value was 0.4583.

Turning to `O=C(O)CCC/C=C\C[C@@H]1[C@H](CNNC(=O)Nc2ccccc2)[C@H]2CC[C@@H]1O2` [SQ-29548], the “T2 Zscore (Replica 1)” value is given as 0.3567 and the “T2 Zscore (Replica 2)” value stood at 0.964.

Take `CN(C)c1ccc(/C=C2\C(=O)Nc3ccccc32)cc1` [SU-4312]: the “T2 Zscore (Replica 1)” value is 0.8944 and the “T2 Zscore (Replica 2)” value was 0.4016.

Regarding `NCCc1c[nH]c2ccc(O)cc12` [Serotonin], under setting [3], the “T2 Zscore (Replica 1)” value came out at 0.8367. The “T2 Zscore (Replica 2)” value under setting [4] turned out to be 0.9264.

In the case of `CC(C)=CC[C@@H](O)C1=CC(=O)c2c(O)ccc(O)c2C1=O` [Shikonin], the “T2 Zscore (Replica 1)” value came to 0.2281 and the “T2 Zscore (Replica 2)” value is recorded as 1.574.

Take `CCN(CC)CCCCCCCCOC(=O)c1cc(OC)c(OC)c(OC)c1` [TMB-8]: the “T2 Zscore (Replica 1)” value is on record as −2.5 and the “T2 Zscore (Replica 2)” value was found to be 0.0563.

Regarding `C/C(=C\c1ccc(C(=O)O)cc1)c1ccc2c(c1)C(C)(C)CCC2(C)C` [TTNPB], the “T2 Zscore (Replica 1)” value amounted to 0.4788 and the “T2 Zscore (Replica 2)” value was −0.0476.

In the case of `CC/C(=C(\c1ccccc1)c1ccc(OCCN(C)C)cc1)c1ccccc1` [Tamoxifen], the “T2 Zscore (Replica 1)” value under setting [3] amounted to 0.7507. Also, the “T2 Zscore (Replica 2)” value under setting [4] is reported as 0.9771.

As to `Cc1coc2c1C(=O)C(=O)c1c-2ccc2c1CCCC2(C)C` [Tanshinone IIA], the “T2 Zscore (Replica 1)” value under setting [1] stood at 0.3714. The “T2 Zscore (Replica 2)” value under setting [2] turned out to be 1.072.

For the compound `CC(=O)O[C@H]1C(=O)[C@@]2(C)[C@H]([C@H](OC(=O)c3ccccc3)[C@]3(O)C[C@H](OC(=O)[C@H](O)[C@@H](NC(=O)c4ccccc4)c4ccccc4)C(C)=C1C3(C)C)[C@]1(OC(C)=O)CO[C@@H]1C[C@@H]2O` [Taxol = Paclitaxel], the “T2 Zscore (Replica 1)” value under setting [3] was found to be 1.488. The “T2 Zscore (Replica 2)” value under setting [4] is recorded as 1.061.

In the case of `NC(=S)NCCC[C@H](N)C(=O)O` [Thiocitrulline [L-Thiocitrulline]], the “T2 Zscore (Replica 1)” value is 0.5328 and the “T2 Zscore (Replica 2)” value is 1.002.

As to `O=C(O)CNC(=O)C(CS)Cc1ccccc1` (centres unmarked) [Thiorphan], the “T2 Zscore (Replica 1)” value under setting [1] is −0.5041. In addition, the “T2 Zscore (Replica 2)” value under setting [2] stood at 0.9397.

Consider `Cc1ccc(S(=O)(=O)N[C@@H](Cc2ccccc2)C(=O)CCl)cc1` [Tosyl-Phe-CMK (TPCK)], for which the “T2 Zscore (Replica 1)” value was determined as 0.8292 and the “T2 Zscore (Replica 2)” value was 0.4999.

As to `CN1CCN(CCCN2c3ccccc3Sc3ccc(C(F)(F)F)cc32)CC1` [Trifluoperazine], under setting [1], the “T2 Zscore (Replica 1)” value was found to be 0.7275. The “T2 Zscore (Replica 2)” value under setting [2] was found to be 0.6177.

Consider `N#CC(C#N)=Cc1ccc(O)cc1` [Tyrphostin-8], for which the “T2 Zscore (Replica 1)” value is −0.5297 and the “T2 Zscore (Replica 2)” value came out at 0.8841.

`COc1ccc2c(c1)CC[C@@H]1[C@@H]2CC[C@]2(C)[C@@H](NCCCCCCN3C(=O)C=CC3=O)CC[C@@H]12` [U73122]: the “T2 Zscore (Replica 1)” value came out at 0.4045 and the “T2 Zscore (Replica 2)” value came out at 1.6.

On to `N#CC(=C(/N)Sc1ccccc1N)/C(C#N)=C(/N)Sc1ccccc1N` [U-0126], for which the “T2 Zscore (Replica 1)” value was 0.03378 and the “T2 Zscore (Replica 2)” value worked out at 0.5725.

Take `C1CCC(N=C(NC23CC4CC(CC(C4)C2)C3)N2CCOCC2)CC1.Cl` [U-37883A]: the “T2 Zscore (Replica 1)” value is 0.6957 and the “T2 Zscore (Replica 2)” value is given as −0.1533.

`CCCCC[C@H](O)/C=C/[C@@H]1[C@@H](C/C=C\CCCC(=O)O)[C@H]2CO[C@@H]1C2` [U-46619]: the “T2 Zscore (Replica 1)” value was determined as 0.8892 and the “T2 Zscore (Replica 2)” value was −0.9246.

Regarding `C[C@]12C=CC(=O)C=C1CC[C@@H]1C2=CC[C@]2(C)[C@@H](C(=O)CN3CCN(c4cc(N5CCCC5)nc(N5CCCC5)n4)CC3)CC[C@@H]12.O=C(O)/C=C\C(=O)O` [U-74389G], the “T2 Zscore (Replica 1)” value is listed as −0.7285 and the “T2 Zscore (Replica 2)” value was 0.2421.

With `CCCCC/C=C\C[C@@H](O)/C=C/c1cccc(C[C@@H](O)CCCCO)n1` [U-75302], the “T2 Zscore (Replica 1)” value was −0.7777 and the “T2 Zscore (Replica 2)” value amounted to 0.1088.

Turning to `CC(C)[C@@H]1NC(=O)[C@H](C)OC(=O)[C@@H](C(C)C)NC(=O)[C@@H](C(C)C)OC(=O)[C@H](C(C)C)NC(=O)[C@H](C)OC(=O)[C@@H](C(C)C)NC(=O)[C@@H](C(C)C)OC(=O)[C@H](C(C)C)NC(=O)[C@H](C)OC(=O)[C@@H](C(C)C)NC(=O)[C@@H](C(C)C)OC1=O` [Valinomycin], the “T2 Zscore (Replica 1)” value is −1.656 and the “T2 Zscore (Replica 2)” value was −1.688.

On to `COc1ccc(CCN(C)CCCC(C#N)(c2ccc(OC)c(OC)c2)C(C)C)cc1OC` (centres unmarked) [Verapimil], for which the “T2 Zscore (Replica 1)” value is listed as −0.4145 and the “T2 Zscore (Replica 2)” value was −1.255.

For `COc1ccc(C(=O)O[C@H]2CC[C@@]3(C)[C@@H]4CC[C@H]5[C@]6(O)C[C@H](O)[C@@]7(O)[C@@H](CN8C[C@@H](C)CC[C@H]8[C@@]7(C)O)[C@]6(O)C[C@@]53O[C@]24O)cc1OC` [Veratridine], the “T2 Zscore (Replica 1)” value came out at 0.7363 and the “T2 Zscore (Replica 2)” value is given as −0.231.

For the compound `CC[C@]1(O)C[C@@H]2CN(CCc3c([nH]c4ccccc34)[C@@](C(=O)OC)(c3cc4c(cc3OC)N(C)[C@H]3[C@@](O)(C(=O)OC)[C@H](OC(C)=O)[C@]5(CC)C=CCN6CC[C@]43[C@@H]65)C2)C1` [Vinblastine], the “T2 Zscore (Replica 1)” value under setting [3] amounted to 1.076. Also, under setting [4], the “T2 Zscore (Replica 2)” value is on record as 1.713.

In the case of `CCOC(=O)C1=C[C@]2(CC)CCCN3CCc4c(n1c1ccccc41)[C@@H]32` [Vinpocetin], the “T2 Zscore (Replica 1)” value is −0.2631 and the “T2 Zscore (Replica 2)” value is recorded as 1.692.

Turning to `CS(=O)(=O)O.Cc1c(C(=O)c2cccc3ccccc23)c2cccc3c2n1[C@H](CN1CCOCC1)CO3` [WIN 55,212-2 mesylate], the “T2 Zscore (Replica 1)” value was 1.287 and the “T2 Zscore (Replica 2)” value came out at 1.96.

Turning to `C[C@@H](N)[C@H]1CC[C@H](C(=O)Nc2ccncc2)CC1` [Y-27632], under setting [1], the “T2 Zscore (Replica 1)” value came out at 0.4321. The “T2 Zscore (Replica 2)” value under setting [2] is −0.3925.

Consider `COc1ccc(CCN(C)CCc2ccc(OC)c(OC)c2)cc1OC` [YS035], for which the “T2 Zscore (Replica 1)” value is recorded as 0.7096 and the “T2 Zscore (Replica 2)” value is 0.4072.

On to `COC(=O)[C@@H]1[C@H]2C[C@H]3c4[nH]c5ccccc5c4CCN3C[C@@H]2CC[C@@H]1O` [Yohimbine], for which the “T2 Zscore (Replica 1)” value under setting [1] came out at 0.6638. For the same compound, the “T2 Zscore (Replica 2)” value under setting [2] is −0.2405.

Take `CC(C)C[C@@H](/C=C/S(C)(=O)=O)NC(=O)[C@H](CC(C)C)NC(=O)[C@H](CC(C)C)NC(=O)OCc1ccccc1` [Z-Leu3-VS]: the “T2 Zscore (Replica 1)” value is given as −0.2626 and the “T2 Zscore (Replica 2)” value was found to be 0.8832.

`COC(=O)C[C@H](NC(=O)[C@H](C)NC(=O)[C@@H](NC(=O)OCc1ccccc1)C(C)C)C(=O)CF` [Z-VAD(OMe)-FMK] (Cbz-Val-Ala-Asp(OMe)-CH2F): the “T2 Zscore (Replica 1)” value was −0.5294 and the “T2 Zscore (Replica 2)” value is given as −0.03524.

`O=C[C@@H]1CCCN1C(=O)[C@@H]1CCCN1C(=O)OCc1ccccc1` [Z-prolyl-prolinal] (Cbz-Pro-Pro-aldehyde): the “T2 Zscore (Replica 1)” value was 0.243 and the “T2 Zscore (Replica 2)” value is −0.1015.

Regarding `CC(O)(C(=O)Nc1ccc(S(=O)(=O)c2ccccc2)cc1)C(F)(F)F` (centres unmarked) [ZM226600], the “T2 Zscore (Replica 1)” value is on record as −0.4912 and the “T2 Zscore (Replica 2)” value is on record as −0.7905.

As for `Cc1ccc(NC(=O)c2cccc(N(C)C)c2)cc1NC(=O)c1ccc(O)cc1` [ZM336372], the “T2 Zscore (Replica 1)” value was determined as 0.6466 and the “T2 Zscore (Replica 2)” value turned out to be 1.125.

On to `COc1cc(-c2ccc(=O)[nH]n2)ccc1OC(F)F` [Zardaverine], for which, under setting [3], the “T2 Zscore (Replica 1)” value was found to be 0.7329. The “T2 Zscore (Replica 2)” value under setting [4] came out at 1.771.
